Consider one substance from patent publication US6013659A, “Methods of reducing tumor colony number using novel benzothiazole compounds” (University of Pittsburgh, priority 1998, dated 2000).

One data set relates to cancer cells. The note with it: literature (Goldfarb et al.); cited from earlier work.
The next data set concerns tumors. The data set is described as follows: Infiltration of tumors/metastases by A-NK cells and side effects (choice of effective amount). It is filed as in vivo, mouse. How it is done:
The effective amount of A-NK cells is 3-4×10^7 cells per 20 g mouse. […] The A-NK cells are administered intravenously to the mice.
IL-2 (obtained from Chiron corporation, Emeryville, Calif.) is administered at 120,000 IU i.v. per 20 g mouse initially and 120,000 IU i.p after 8 h. […] In addition the increase in infiltration was not proportional to the increased amount of IL-2 administered.

For the substance interleukin-2 [IL-2], in the data set on cancer cells, the “direct effect on cancer cells” value was “did not have a direct effect on cancer cells”. Moreover, the infiltration of tumors entry in the data set with tumors (120,000 IU i.v. per 20 g mouse initially and 120,000 IU i.p. after 8 h) is listed as “maximal infiltration of tumors”. Further, the side effects entry in the data set on tumors (larger amounts of IL-2) is “unwanted side effects”.
